Laboratory results: paper PMC12797171 (2025)

Chains of the proteins cited; added tags and fusions are not shown. Lines headed by an entry give the natural chain unless they say otherwise; changes in a name come on top.
UniProt P30550: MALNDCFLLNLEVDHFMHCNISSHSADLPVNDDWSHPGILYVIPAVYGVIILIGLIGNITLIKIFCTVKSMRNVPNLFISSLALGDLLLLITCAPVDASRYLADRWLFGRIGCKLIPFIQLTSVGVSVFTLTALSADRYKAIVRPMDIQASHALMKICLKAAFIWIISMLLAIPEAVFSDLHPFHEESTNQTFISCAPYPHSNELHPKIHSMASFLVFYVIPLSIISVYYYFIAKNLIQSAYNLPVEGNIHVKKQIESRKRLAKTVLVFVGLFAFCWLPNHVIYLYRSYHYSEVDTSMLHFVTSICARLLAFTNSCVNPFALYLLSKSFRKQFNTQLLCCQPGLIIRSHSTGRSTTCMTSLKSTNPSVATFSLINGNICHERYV

Target: gastrin-releasing peptide receptor (Homo sapiens, UniProt P30550)
Experiment: LigandTracer real-time cell binding (PC-3 cells)

B1: LF1 (peptide)
chain: FQWAVGHL
modifications: 177Lu-AAZTA5-Pip N-terminal, D-Phe1, statine (Sta) between His and Leu, C-terminal amide
  Kd: 0.12 nM
